# B1: rhBMP-2: commercial available recombinant human bone morphogenic protein-2 (protein, UniProt P12643 283-396, looked up)
# Bone morphogenetic protein 2: QAKHKQRKRLKSSCKRHPLYVDFSDVGWNDWIVAPPGYHAFYCHGECPFPLADHLNSTNHAIVQTLVNSVNSKIPKACCVPTELSAISMLYLDENEKVVLKNYQDMVVEGCGCR
# Columns and labels:
# [1] = system: hard tissue forming cells; assay: General activity statements on hard tissue forming cells; conditions: suboptimal concentration of rhBMP-2 alone
# Smad1/5/8 = assay: Phosphorylation of Smad1/5/8 by Western blotting in primary osteoblasts; assay type: cell-based, mouse; conditions: 25 ng/mL BMP-2 alone
# Protocol: Materials and Methods: Primary osteoblasts collected from fetal mouse calvaria were cultured with 0 or 25 ng/mL of BMP-2 with the addition of 0 or 2 uM of the peptide of SEQ ID No. 8 to the culture system. Phosphorylation of Smad1/5/8 was evaluated by Western blotting at 0, 0.5, 1, 2, 12, 24, 48 and 72 hours.
# [2] = system: dorsal muscle of mice (ICR); assay: Ectopic bone formation from polymer pellets implanted in mouse dorsal muscle; assay type: in vivo
# Excerpt: Materials and Methods: Polymer pellets containing both BMP-2 and the peptide of SEQ ID No. 8 in the following amounts (see table below) were implanted in the dorsal subfascia of 4 week old ICR mice. The mice were sacrificed 3 weeks later and the newly formed bones were isolated for evaluation using soft X-ray radiograph and bone mineral density determination.
molecule,measurement,setting,value
B1,COX-2 or PGE2,[1],marginally upregulated
same,time over which phosphorylation of Smad1/5/8 was detectable,Smad1/5/8,0.5 to 12 h
same,bone formation compared to a 5 μg dose,[2]; 3 μg rhBMP-2 (suboptimal dose),substantially less bone formation
same,new bone formation,"[2]; 5 μg or higher rhBMP-2 in PLA/PEG/DX polymer, about 20 days",new bone tissue was locally formed
